Results on 1 compound are retold here after patent publication US20260234147A1 (priority 2023, published 2026).

Protein sequences, listed by entry. Tags and fused reporters are not part of them.
UniProt P41143, whole entry: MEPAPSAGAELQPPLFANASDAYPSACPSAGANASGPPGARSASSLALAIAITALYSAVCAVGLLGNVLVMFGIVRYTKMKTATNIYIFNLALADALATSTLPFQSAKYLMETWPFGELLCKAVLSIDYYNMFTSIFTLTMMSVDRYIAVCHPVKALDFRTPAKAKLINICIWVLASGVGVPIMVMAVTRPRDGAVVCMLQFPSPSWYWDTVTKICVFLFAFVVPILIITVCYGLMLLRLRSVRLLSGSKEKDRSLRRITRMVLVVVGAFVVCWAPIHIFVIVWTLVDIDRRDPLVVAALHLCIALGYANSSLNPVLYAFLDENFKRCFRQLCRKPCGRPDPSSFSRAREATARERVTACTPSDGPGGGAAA

The target in the experiment is hDOR (Homo sapiens, UniProt P41143). The experiment is described as follows: Radioligand binding assay (Eurofins Cerep), [3H]DADLE displacement. As to conditions: DOR Ki ± SEM (nM).

Usually Ki stands for the equilibrium dissociation constant of an inhibitor or competing ligand from its target. Low values mean a stronger hold on the target, high ones a looser hold on the target. The compound `C[C@@H](NC(=O)[C@@H](N)Cc1ccc(O)cc1)C(=O)NCC(=O)N(C)[C@@H](Cc1ccccc1)C(=O)NCCO` [DAMGO, reference compound] showed an inhibition constant Ki of 655 nM.
